Data: patent US8816122B2 (The Board of Trustees of the Leland Stanford Junior …, priority 2009, dated 2014)

Test system: CD69
Test: CD69 surface marker induction in primary quiescent CD4+ T cells
Format: cell-based

**Q.** Which “Minimum Concentration for CD69 Induction” value does the source give for `CCC/C=C/C=C/C(=O)O[C@H]1/C(=C/C(=O)OC)C[C@H]2C[C@H]([C@@H](C)O)OC(=O)C[C@H](O)C[C@@H]3C[C@H](OC(C)=O)C(C)(C)[C@](O)(C[C@@H]4C/C(=C/C(=O)OC)C[C@H](/C=C/C(C)(C)[C@]1(O)O2)O4)O3` [Bryostatin 1, reference compound] here?
**A.** 1 nM
